From paper PMC5472792, “Bub1 positions Mad1 close to KNL1 MELT repeats to promote checkpoint signalling” (Nature Communications, 2017)

Test system: GST-Bub1 425–500
Experiment: In vitro phosphorylation of GST-Bub1, mass spectrometry
Format: biochemical, human
Method: To identify mitotic kinases able to phosphorylate Bub1 on Ser459 and Thr461 we performed in vitro phosphorylation assays with candidate kinases. […] However, given the fact that Mps1 phosphorylates the corresponding Thr455 site in budding yeast Bub1 (ref. [37]) we suspected that Mps1 might be the kinase that phosphorylates Thr461. We incubated purified GST-Bub1 encompassing amino acids 425–500 with either purified Cdk1-Cyclin B1 or Mps1 and analysed the samples by mass spectrometry.
A similar set-up was used for analysing the phosphorylated GST-Bub1 except that an EASY-nLC 1200 UHPLC system connected to an Orbitrap Q-Exactive HF was used and the acetonitrile gradient was run for 77 min. The samples were analysed using a ‘fast' acquisition mode with a normalized collision energy (NCE) of 25 and raw data analysed with MaxQuant software suit version 1.5.7.4.
GST- Bub1 (425–500) was expressed in BL21(DE3) cells at 18 °C overnight with 0.5 mM IPTG in the medium. The bacteria were lysed in 50 mM Tris-HCl pH 7.4, 300 mM NaCl, 10% glycerol, 5 mM β-mercaptoethanol, 1 mM PMSF, plus Complete-EDTA free protease inhibitors (Roche) using a high pressure homogenizer. Lysates were cleared by centrifugation and incubated with pre-equilibrated Glutathione-Fast Flow (GE Healthcare) beads for 2 h at 4 °C and eluted with GST-elution buffer at room temperature (50 mM Tris pH 8.8, 300 mM NaCl, 10% glycerol, 5 mM β-mercaptoethanol, 20 mM reduced glutathione). Elutions were pooled and run on Superdex 200 column (GE Healthcare) in PBS with 8.7% glycerol and 5 mM mercaptoethanol. Peak fractions were aliquoted and stored at −80 °C.
Recombinant GST-Bub1 (12 μg) was incubated with 20 units CDK1-CyclinB1 (New England Biolabs), 0,2 μg Mps1 (TTK; Life Technologies) in protein kinase buffer (50 mM Tris pH 7.5, 10 mM MgCl2, 0.1 mM EDTA, 2 mM DTT, 0.01% Brij 35). 500 μM ATP and 125 nM Calyculin A (Cell Signaling) were added and the reactions were incubated at 30 °C for 1 h. […] The band corresponding to GST-Bub1 was cut out and analysed by mass spectrometry.

[1] = GST-Bub1 425-500, 30 °C for 1 h, 500 μM ATP, LC-MS, kinase-free control 0

Cdk1-Cyclin B1: purified kinase (New England Biolabs) [reference compound]
intensity of phospho-peptide 456-VQPS(Phos)PTVHTK (pS459) [1]: 5,59E+08
intensity of phospho-peptide 456-VQPSPT(Phos)VHTK (pT461) [1]: 1,89E+08
phosphorylation of GST-Bub1 425–500 (in words) (Ser459 and Thr461, mass spectrometry): phosphorylation of Ser459 and Thr461
